Laboratory results from patent US12146155B2, “Method for constructing human pluripotent stem cell-derived liver organoid having enhanced drug metabolic potential and liver organoid constructed by same method” (KOREA RESEARCH INSTITUTE OF CHEMICAL TECHNOLOGY, priority 2021, dated 2024).

Sequences of proteins named here, by UniProt entry; tags and fusion partners are left off.
UniProt O95342, whole entry: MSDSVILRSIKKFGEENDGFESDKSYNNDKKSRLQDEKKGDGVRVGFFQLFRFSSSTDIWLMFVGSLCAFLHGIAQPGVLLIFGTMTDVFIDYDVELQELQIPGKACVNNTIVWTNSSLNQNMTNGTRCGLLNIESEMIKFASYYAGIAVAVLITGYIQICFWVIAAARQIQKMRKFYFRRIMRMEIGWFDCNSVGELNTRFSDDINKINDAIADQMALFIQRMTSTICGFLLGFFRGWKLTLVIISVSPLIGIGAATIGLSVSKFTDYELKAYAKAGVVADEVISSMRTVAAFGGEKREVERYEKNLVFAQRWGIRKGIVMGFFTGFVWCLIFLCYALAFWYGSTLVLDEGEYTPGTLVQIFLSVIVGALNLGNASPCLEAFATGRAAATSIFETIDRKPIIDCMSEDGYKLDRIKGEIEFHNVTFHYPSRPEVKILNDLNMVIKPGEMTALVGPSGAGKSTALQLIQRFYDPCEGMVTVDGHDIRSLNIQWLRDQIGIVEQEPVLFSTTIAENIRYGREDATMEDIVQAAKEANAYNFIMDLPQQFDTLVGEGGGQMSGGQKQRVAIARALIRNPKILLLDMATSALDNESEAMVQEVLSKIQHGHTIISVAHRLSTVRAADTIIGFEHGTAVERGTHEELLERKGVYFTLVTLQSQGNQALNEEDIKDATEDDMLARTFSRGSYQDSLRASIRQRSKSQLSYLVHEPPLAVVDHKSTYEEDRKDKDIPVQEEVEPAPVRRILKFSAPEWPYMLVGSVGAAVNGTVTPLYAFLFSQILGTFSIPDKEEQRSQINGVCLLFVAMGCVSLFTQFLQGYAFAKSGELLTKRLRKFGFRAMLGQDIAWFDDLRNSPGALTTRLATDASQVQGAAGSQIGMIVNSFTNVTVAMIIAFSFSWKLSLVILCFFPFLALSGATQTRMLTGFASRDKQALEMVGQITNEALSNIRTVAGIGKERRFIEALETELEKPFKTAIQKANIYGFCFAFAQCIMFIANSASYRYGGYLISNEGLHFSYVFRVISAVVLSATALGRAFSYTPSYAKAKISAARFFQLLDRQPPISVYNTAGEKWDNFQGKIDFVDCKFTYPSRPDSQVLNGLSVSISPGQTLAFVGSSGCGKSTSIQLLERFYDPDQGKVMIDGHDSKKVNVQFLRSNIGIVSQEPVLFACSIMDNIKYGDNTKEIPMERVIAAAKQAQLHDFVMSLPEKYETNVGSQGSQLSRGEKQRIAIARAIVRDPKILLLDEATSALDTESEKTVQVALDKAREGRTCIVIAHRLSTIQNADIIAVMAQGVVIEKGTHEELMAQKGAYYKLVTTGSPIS

Target: BSEP (Homo sapiens, UniProt O95342)
Conditions: 10 μM ketoconazole, 24 hours; D(−)-HO and S(−)-HO
Procedure: Specifically, the liver organoids were recovered on Matrigel and washed three times with DPBS. For CDFDA (5(6)-carboxy-2′,7′-dichlorofluorescein diacetate) staining, the liver organoids treated with or without 2 mM probenecid for 3 hours were stained with 10 μM CDFDA (Sigma-Aldrich) for 15 minutes at 37° C., 5% CO2. […] All samples were washed three times with DPBS, stained with Hoechst 33342, and observed under an Olympus FV3000 confocal microscope.

In the case of `CC(=O)N1CCN(c2ccc(OCC3COC(Cn4ccnc4)(c4ccc(Cl)cc4Cl)O3)cc2)CC1` (stereo not shown) [ketoconazole], the “BSEP-specific fluorescence (CLF) when transporter blocked” value is reported as “accumulated in the lumen of the liver organoids”.
